The numbers were not newly measured in patent US10325677B2, “Apparatus and computerized method for optimizing or generating a sigma profile for a molecule” (Texas Tech University System, priority 2014, dated 2019), which cites them from elsewhere.

Each structure is given as a SMILES string.

For the data set the following is noted: published in the literature.
In the case of `CC(=O)Oc1ccccc1C(=O)O` [Aspirin, aspirin], the “NRTL-SAC Conceptual Segment Number X” value is recorded as 0.103, the “NRTL-SAC Conceptual Segment Number Y^+” value is on record as 1.160, the “NRTL-SAC Conceptual Segment Number Y^−” value was 0 and the “NRTL-SAC Conceptual Segment Number Z” value is reported as 0.777.
In the case of `CC[C@H](C)C(=O)O[C@H]1C[C@@H](C)C=C2C=C[C@H](C)[C@H](CC[C@@H]3C[C@@H](O)CC(=O)O3)[C@H]21` [Lovastatin, lovastatin], the “NRTL-SAC Conceptual Segment Number X” value was 0.175, the “NRTL-SAC Conceptual Segment Number Y^+” value is reported as 0.548, the “NRTL-SAC Conceptual Segment Number Y^−” value is given as 0 and the “NRTL-SAC Conceptual Segment Number Z” value is on record as 0.882.
Consider `CC(=O)Nc1ccc(O)cc1` [Paracetamol, paracetamol], for which the “NRTL-SAC Conceptual Segment Number X” value is 0.498, the “NRTL-SAC Conceptual Segment Number Y^+” value was 0.162, the “NRTL-SAC Conceptual Segment Number Y^−” value was 0.487 and the “NRTL-SAC Conceptual Segment Number Z” value was 1.270.
